In US20220288223A1, “ACTIVATABLE SPECIFIC BINDING MEMBER COMPLEXES, AND METHODS OF MAKING AND USING SAME” (The Regents of the University of California, priority 2019, published 2022):

Assays:
[1] = system: head and neck cancer cell line (Cal-27); experiment: Immunohistocytochemistry, HRP-dependent DAB staining (FIG. 4); type: cell-based; settings: FIG. 4 panel B
Description: Thrombin treatment activated the PA-cetuximab to allow binding to EGFR protein and cells (Cal-27) that express EGFR (FIG. 4).

[2] = dose limiting skin toxicities; cited from earlier work

cetuximab [reference compound]
Binding to Cal-27 cells (DAB staining on membranes) [1]: binding
Severe skin rash [2]: approximately 90 % of patients
